For series [1] the following is noted: dynamic vapor sorption from 5% relative humidity to 95% relative humidity at 25° C.; hemi-L-tartrate hydrate.

Read-outs that look alike come from different tables or passages of the source.

`Cc1nc(N2CC([C@H]3CCCN(C4CC(C)(C(=O)O)C4)C3)C2)nc(N[C@H](C)c2ccc(Cl)cc2Cl)c1Cl` (stereo partly drawn) [Form F, (1R,3r)-3-((R)-3-(1-(5-chloro-4-(((R)-1-(2,4-dichlorophenyl)ethyl)amino)-6-methylpyrimidin-2-yl)azetidin-3-yl)piperidin-1-yl)-1-methylcyclobutane-1-carboxylic acid hemi-L-tartrate hydrate]: in series [1], the “variability in hydration state (weight gain/loss)” value is recorded as roughly 3%. In addition, the storage stability entry is reported as “outstanding stability” (6 months of storage under accelerated stability conditions (40° C. and 75% relative humidity)); “outstanding stability” (12 months of storage at controlled room temperature and humidity (25° C. and 40% relative humidity)).
As to `Cc1nc(N2CC([C@H]3CCCN(C4CC(C)(C(=O)O)C4)C3)C2)nc(N[C@H](C)c2ccc(Cl)cc2Cl)c1Cl` (stereo partly drawn) [Form E, (1R,3r)-3-((R)-3-(1-(5-chloro-4-(((R)-1-(2,4-dichlorophenyl)ethyl)amino)-6-methylpyrimidin-2-yl)azetidin-3-yl)piperidin-1-yl)-1-methylcyclobutane-1-carboxylic acid hemi-L-tartrate hydrate], the “variability in hydration state (weight gain/loss)” value in series [1] is given as roughly 16%.

These data come from patent US20250034115A1, “CRYSTALLINE FORMS OF C-C CHEMOKINE RECEPTOR TYPE 4 ANTAGONIST AND USES THEREOF” (RAPT THERAPEUTICS, INC., priority 2023, published 2025).
